{
  "source": "paper PMC8832507",
  "about": "(Molecular cancer therapeutics, 2021)",
  "assay": "PAMPA permeability assay",
  "conditions": "free payload",
  "note": "Values joined by “and” are separate entries in the source; they are usually repeats but may differ in a detail not shown here. Identical values can stand only once.",
  "data": [
    {"substance": "calicheamicin D [CaliD]", "values": [
      {"measurement": "PAMPA permeability, fold higher than CaliG", "result": "~ 2 fold and 2 fold"},
      {"measurement": "PAMPA permeability, fold higher than PBD", "result": "~ 3 fold"}
    ]}
  ]
}
